Activation data for 26 compounds are collected here from PubChem BioAssay AID602163 (The Scripps Research Institute Molecular Screening Center, 2012).

The entries are a selection whose mix differs from that of the whole data set. Some tests of the compounds listed are not included; inactive here does not mean inactive elsewhere. Active and inactive are the calls of the source. No stated cut-off is given here; in the data, active means activation above about 7.5%; inactive means the rest.

In this assay the test system is Methionine sulfoxide reductase A (Bos taurus). Description: bovine MsrA enzyme activators, primary screen, biochemical, absorbance, HTS (AID 602163).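 Further: 0% = vehicle and 100% = reference activator.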 To be noted: purified bovine MsrA, absorbance read-out; at 10.6 µM; hits give high values.
Turning to `O=C(NCC1(N2CCCCC2)CCCCC1)c1cc([N+](=O)[O-])ccc1Cl`, the activation is inactive: -2.86%.
For the compound `CN1[C@@H]2CC[C@H]1CC(OC(=O)C(O)(c1ccccc1)c1ccccc1)C2` (stereo partly specified), the activation was inactive: -1.82%.
In the case of `COc1cc(SC)ccc1C(=O)NCC1(N(C)C)CCCCC1`, the activation was inactive: -5.33%.
Next, `CCN(CC)CC(C)C(C)OC(=O)C(O)(c1ccccc1)c1ccccc1` (stereo unspecified): inactive: -3.15%; `CC(C)N1C(=O)CC2(CCN(CCOC(=O)C(O)(c3ccccc3)c3ccccc3)CC2)C1=O`: inactive: -2.19%.
Turning to `Cc1ccc(C(=O)NCC2(N3CCCCC3)CCCCC2)cc1`, the activation was inactive: 1.67%.
With `CN(C)C1CCCC1OC(=O)C(O)(c1ccccc1)c1ccccc1` (stereo unspecified), the activation is inactive: -2.36%.
Next, `CN(C)c1ccc(C(=O)NCC2(N(C)C)CCCCC2)cc1`: inactive: -2.75%.
In the case of `Cc1ccccc1C(=O)NCC1(N2CCCCC2)CCCCC1`, the activation is inactive: -6.11%.
Then `O=C(NCC1(N2CCCCC2)CCCCC1)c1cc(F)c(F)cc1Cl`, with inactive: -2.27%.
Turning to `C=CCN1CCN(CCOC(=O)C(O)(c2ccccc2)c2ccccc2)CC1`, the activation is inactive: -2.55%.
For `COc1ccc(C(=O)NCC2(N(C)C)CCCCC2)cc1`, the activation was inactive: -0.91%.
Consider `O=C(NCC1(N2CCCCC2)CCCCC1)c1cccc(Br)c1`, for which the activation was inactive: -2.84%.
As to `Cc1cc(C(=O)NCC2(N3CCCCC3)CCCCC2)ccc1[N+](=O)[O-]`, the activation is inactive: -1.74%.
With `CCN1CCCC(OC(=O)C2(O)c3ccccc3C=Cc3ccccc32)C1` (stereo unspecified), the activation is inactive: 0.27%.
Consider `CN(C)C1(CNC(=O)c2ccc(Br)cc2)CCCCC1`, for which the activation is inactive: -3.53%.
Then `COc1cc(C(=O)NCC2(N(C)C)CCCCC2)c([N+](=O)[O-])cc1OC`, with inactive: 2.26%; and `COc1ccc(Cl)cc1C(=O)NCC1(N(C)C)CCCCC1`, with inactive: -2.03%.
Next, `COc1cccc(C(=O)NCC2(N3CCCCC3)CCCCC2)c1`: inactive: -2.9%; `O=C(NCC1(N2CCCCC2)CCCCC1)c1cccc(Cl)c1`: inactive: -5.1%.
For the compound `O=C(OC1CN2CCC1CC2)C(CO)(c1ccccc1)c1ccccc1` (stereo unspecified), the activation was inactive: -2.3%.
On to `C=C(C)C#CC(O)(C(=O)OC1CCN(C)CC1)c1ccccc1` (stereo unspecified), for which the activation is inactive: -10.1%.
Next, `COc1ccc(Br)c(C(=O)NCC2(N3CCCCC3)CCCCC2)c1`: inactive: -2%.
Regarding `O=C(OCCN1CCCC1)C(O)(c1ccccc1)c1ccccc1`, the activation is inactive: -1.56%.
Take `CC(C)Oc1ccc(C(=O)NCC2(N(C)C)CCCCC2)cc1`: the activation was inactive: -4.28%.
In the case of `CN(C)c1cccc(C(=O)NCC2(N(C)C)CCCCC2)c1`, the activation was inactive: -4.36%.
